Values belong to the substance of their own block, whether it stands above or below them.
Experiments:
[1] = target: Na^+/K^+-ATPase (α1β1 isozyme) (Anas platyrhynchos, UniProt Q6TG02+Q7ZYV1); experiment: Isothermal titration calorimetry of binding to Na+/K+-ATPase; set-up: species or system duck (salt glands); settings: ITC, 25°C, 10 mM imidazole buffer (pH 7.5), 130 mM NaCl, 30 mM KCl, 3 mM MgCl2
Description: The purified preparation of Na^+/K^+-ATPase (α1β1 isozyme) was obtained from duck salt glands as described elsewhere ([Petrushanko et al., 2016]).
The thermodynamic parameters of amyloid peptides binding to Na^+/K^+-ATPase were measured using a MicroCal iTC200 instrument, as described elsewhere ([Mitkevich et al., 2012]; [Petrushanko et al., 2014]). Experiments were carried out at 25°C in 10 mM imidazole buffer (pH 7.5), containing 130 mM NaCl, 30 mM KCl, 3 mM MgCl2. Aliquots (2.6 μl) of ligands were injected into a 0.2-ml cell containing protein solution to achieve a complete binding isotherm. Protein concentration in the cell ranged from 10 to 20 μM, and ligand concentration in the syringe ranged from 100 to 200 μM. The resulting titration curves were fitted using the MicroCal Origin software, assuming one set of binding sites. Affinity constants (Ka), enthalpy variations (ΔH) and stoichiometry of binding (N) were determined and the Gibbs energy (ΔG) and entropy variations (ΔS) were calculated from the equation: ΔG = −RTlnKa = ΔH-TΔS.

[2] = presence of Zn2+, cited from earlier work
From the text: The amyloid-beta peptide (Aβ) is a normal subnanomolar component of biological fluids ([Masters and Selkoe, 2012]); however, its deposition in the form of amyloid plaques is one of the hallmarks of AD ([Selkoe and Hardy, 2016]). Amyloid plaques are associated with neuronal loss and cognitive impairment ([Musiek and Holtzman, 2015]), and they enhance the tau pathology ([He et al., 2017]). The trigger of the pathologic Aβ aggregation in AD is unknown ([Musiek and Holtzman, 2015]); however, in animal models of AD, the conversion of a monomeric Aβ into fibrillar aggregates, through neurotoxic olig ... || Recently, it has been shown that Aβ undergoes phosphorylation at Ser8 both in vitro and in vivo ([Kumar et al., 2011], [2013]). […] It was the first evidence of the facilitation of cerebral amyloidosis by a synthetic Aβ species injected int ...

[3] = target: Na+/K+-ATPase (α1β1 isozyme) from duck salt glands (duck); experiment: ITC; peptide (100-200 μM, syringe) injected into Na+/K+-ATPase (10-20 μM, cell); 25°C; 10 mM imidazole pH 7.5, 130 mM NaCl, 30 mM KCl, 3 mM MgCl2; fit with one set of binding sites

Substance: Aβ16: N-terminal zinc-binding (metal-binding) domain of Aβ, residues 1–16 (DAEFRHDSGYEVHHQK)
detectability of binding to Na+,K+-ATPase [1]: but not for the 1–16 fragment

Substance: pS8-Aβ16: metal-binding domain of pS8-Aβ (DAEFRHDSGYEVHHQK; Amyloid-beta phospho-Ser8; UniProt P05067 672-687, looked up, fragment)
zinc-induced oligomerization of metal-binding domain ([2]; ref Istrate et al., 2016): do not give rise to larger oligomers and aggregates
zinc-induced dimer formation of metal-binding domain ([2]; ref Kulikova et al., 2014): forms stable dimers

stoichiometry N [3]: 1
Substance: β-amyloid peptide 1–42 (Aβ42)

dH [3]: -2.54 kcal/mol
stoichiometry N [3]: 1
Substance: β-amyloid peptide 1–42 phosphorylated at Ser8 (pS8-Aβ42)

— publication PMC6123382, “Phosphorylation of the Amyloid-Beta Peptide Inhibits Zinc-Dependent Aggregation, Prevents Na,K-ATPase Inhibition, and Reduces Cerebral Plaque Deposition” (Frontiers in Molecular Neuroscience, 2018)
